# Measurements from the OPERA property sets (Mansouri et al. 2018).
# Conditions: experimental values compiled from the literature
SMILES,melting point [°C],ready biodegradability,boiling point [°C],log10 vapour pressure (mmHg),log10 Koc (L/kg),log10 Henry constant (atm·m³/mol)
O=[N+]([O-])OC[C@H](O[N+](=O)[O-])[C@@H](CO[N+](=O)[O-])O[N+](=O)[O-],61,,,,,
ClP(Cl)c1ccccc1,,not readily biodegradable,,,,
O=[N+]([O-])OCCO[N+](=O)[O-],-22.3,,198,-1.14,,
Cc1cc([N+](=O)[O-])c([N+](=O)[O-])cc1[N+](=O)[O-],104,,300,,,
O=[N+]([O-])c1cc([N+](=O)[O-])c(O)c([N+](=O)[O-])c1O,176,,,,,
CCOP(C)(=S)OCC,-84.4,,199,,,
CCCN(CCC)CCO,,,196,,,
Nc1c([N+](=O)[O-])cc([N+](=O)[O-])cc1[N+](=O)[O-],194,,,,,
COC(=O)N(C)C(=O)CSP(C)(=S)OC (centres undefined),36,,,,,
CCOP(=S)(CC)Oc1cc(Cl)c(Cl)cc1Cl (centres undefined),,,,-4.82,2.6,
O=[N+]([O-])c1cc([N+](=O)[O-])c2onnc2c1,158,,,,,
CC(O)CO[N+](=O)[O-] (centres undefined),,,,,,-7.04
CC(C)OP(C)(=O)OC(C)C,,,,-0.557,,
O=C1C2CC=CCC2C(=O)N1SC(Cl)(Cl)C(Cl)Cl (centres undefined),,not readily biodegradable,,,3.32,
COc1ccc([N+](=O)[O-])cc1[N+](=O)[O-],94.5,,,,,
COP(=S)(Cl)OC,,,,-0.301,,
COP(C)(=O)OC,,,181,-0.0168,,
C[As](=O)(O)O,,,,,3.85,
Cc1cc([N+](=O)[O-])c(O)c([N+](=O)[O-])c1,,,,,,-7.28
Cc1cc([N+](=O)[O-])c(N(CCCl)CCCl)c([N+](=O)[O-])c1,,,,,3.94,
CCOP(=O)(CC)OCC,,,198,-1.14,,
O=C(O)C(O)(c1ccccc1)c1ccccc1,151,not readily biodegradable,,,,
Cc1cc([N+](=O)[O-])cc([N+](=O)[O-])c1,93,,315,-3.39,,
CCCCOC(=O)Cl,,,,0.816,,
C[As](=O)([O][Na])[O][Na],,,,,2.78,
CP(=O)(Cl)Cl,36,,163,,,

SMILES,melting point [°C],ready biodegradability,boiling point [°C],log10 vapour pressure (mmHg),log10 Koc (L/kg),log10 Henry constant (atm·m³/mol)
Cc1c([N+](=O)[O-])cc([N+](=O)[O-])c(O)c1[N+](=O)[O-],110,,,,,
O=[N+]([O-])C([N+](=O)[O-])[N+](=O)[O-],15,,,,,
CCC(CO[N+](=O)[O-])(CO[N+](=O)[O-])CO[N+](=O)[O-],51.5,,,,,
CP(=O)(O)O,108,,,,,
N=C(NN)N[N+](=O)[O-],185,,,,,
O=[N+]([O-])c1ccc([N+](=O)[O-])cc1,174,not readily biodegradable,297,,,
O=[N+]([O-])c1ccc(O)cc1[N+](=O)[O-],134,,,,,
C[As](=O)([O-])O.[Na+],,,,-7.12,,
O=[N+]([O-])N1CN([N+](=O)[O-])CN([N+](=O)[O-])C1,206,,,-8.39,,
N=C(N)N[N+](=O)[O-],,not readily biodegradable,,,,
O=[N+]([O-])C(Cl)(Cl)[N+](=O)[O-],,,122,,,
CC(C)O[N+](=O)[O-],,,100,1.53,,-2.79
CC(CO[N+](=O)[O-])O[N+](=O)[O-] (centres undefined),,,,-0.422,,
CCN(CC)CCCl,210,,146,,,
Cc1cc([N+](=O)[O-])cc([N+](=O)[O-])c1O,,not readily biodegradable,,-3.92,2.41,-5.85
OCCSCCO,-10.2,not readily biodegradable,282,-2.49,,
CC(=O)OOC(C)(C)C,,not readily biodegradable,,,,
O=[N+]([O-])OCCO,,,,,,-7.59
O=P(Cl)(Cl)Oc1ccccc1,,,,-1.28,,
Nc1cc([N+](=O)[O-])cc([N+](=O)[O-])c1O,169,,,,,
CN(C)[N+](=O)[O-],58,,187,-0.443,,
CC(CO)O[N+](=O)[O-] (centres undefined),,,,,,-6.65
O=[N+]([O-])N1CN([N+](=O)[O-])CN([N+](=O)[O-])CN([N+](=O)[O-])C1,,,,-13.5,,
ClP1Oc2ccccc2O1,30,,,,,
Cc1c([N+](=O)[O-])cc([N+](=O)[O-])cc1[N+](=O)[O-],80.1,,,-5.1,,
O=[N+]([O-])C(Cl)([N+](=O)[O-])[N+](=O)[O-],4.5,,,,,

# Same assay, conditions: fish
SMILES,log10 BCF,log10 biotransformation half-life (days)
O=[N+]([O-])c1cccc([N+](=O)[O-])c1,0.77,
Cc1c([N+](=O)[O-])cccc1[N+](=O)[O-],1.34,
O=[N+]([O-])c1cc([N+](=O)[O-])c(O)c([N+](=O)[O-])c1,0.34,
Cc1ccc([N+](=O)[O-])cc1[N+](=O)[O-],0.96,-0.22
O=C(O)C(O)(c1ccccc1)c1ccccc1,0.26,
O=[N+]([O-])N1CN([N+](=O)[O-])CN([N+](=O)[O-])C1,0.3,
Nc1cc([N+](=O)[O-])cc([N+](=O)[O-])c1O,0.47,
O=[N+]([O-])N1CN([N+](=O)[O-])CN([N+](=O)[O-])CN([N+](=O)[O-])C1,-0.3,
Cc1c([N+](=O)[O-])cc([N+](=O)[O-])cc1[N+](=O)[O-],0.99,
